Earlier results in patent publication US4528290A, “Stimulating dopamine D-1 receptors” (Eli Lilly and Company, priority 1984, dated 1985).

System: cyclic AMP levels in striatal tissue (D-1/D-2 receptors)
Conditions: Stoof and Kebabian, cited from earlier work

For `CCCN1CCC[C@@H]2Cc3[nH]ncc3C[C@H]21` (relative stereo) [Racemate, trans-(±)-5-n-propyl-4,4a,5,6,7,8,8a,9-octahydro-1H(and 2H)-pyrazolo[4,3-g]quinoline], the “reduction of the effect of SKF38393 in increasing cyclic AMP levels” value (FIG. 3 page 368) is given as 57±8% and the “effect on cyclic AMP levels” value (chart G page 367) is given as “lower cyclic AMP levels”.
